Test results published in ChEMBL document CHEMBL1142354, “Synthesis and biological evaluation of (hetero)arylmethyloxy- and arylmethylamine-phenyl derivatives as potent P-glycoprotein modulating agents” (J Med Chem, 2008).

Sequences of proteins named here, by UniProt entry; tags and fusion partners are left off.
UniProt P08183, whole entry: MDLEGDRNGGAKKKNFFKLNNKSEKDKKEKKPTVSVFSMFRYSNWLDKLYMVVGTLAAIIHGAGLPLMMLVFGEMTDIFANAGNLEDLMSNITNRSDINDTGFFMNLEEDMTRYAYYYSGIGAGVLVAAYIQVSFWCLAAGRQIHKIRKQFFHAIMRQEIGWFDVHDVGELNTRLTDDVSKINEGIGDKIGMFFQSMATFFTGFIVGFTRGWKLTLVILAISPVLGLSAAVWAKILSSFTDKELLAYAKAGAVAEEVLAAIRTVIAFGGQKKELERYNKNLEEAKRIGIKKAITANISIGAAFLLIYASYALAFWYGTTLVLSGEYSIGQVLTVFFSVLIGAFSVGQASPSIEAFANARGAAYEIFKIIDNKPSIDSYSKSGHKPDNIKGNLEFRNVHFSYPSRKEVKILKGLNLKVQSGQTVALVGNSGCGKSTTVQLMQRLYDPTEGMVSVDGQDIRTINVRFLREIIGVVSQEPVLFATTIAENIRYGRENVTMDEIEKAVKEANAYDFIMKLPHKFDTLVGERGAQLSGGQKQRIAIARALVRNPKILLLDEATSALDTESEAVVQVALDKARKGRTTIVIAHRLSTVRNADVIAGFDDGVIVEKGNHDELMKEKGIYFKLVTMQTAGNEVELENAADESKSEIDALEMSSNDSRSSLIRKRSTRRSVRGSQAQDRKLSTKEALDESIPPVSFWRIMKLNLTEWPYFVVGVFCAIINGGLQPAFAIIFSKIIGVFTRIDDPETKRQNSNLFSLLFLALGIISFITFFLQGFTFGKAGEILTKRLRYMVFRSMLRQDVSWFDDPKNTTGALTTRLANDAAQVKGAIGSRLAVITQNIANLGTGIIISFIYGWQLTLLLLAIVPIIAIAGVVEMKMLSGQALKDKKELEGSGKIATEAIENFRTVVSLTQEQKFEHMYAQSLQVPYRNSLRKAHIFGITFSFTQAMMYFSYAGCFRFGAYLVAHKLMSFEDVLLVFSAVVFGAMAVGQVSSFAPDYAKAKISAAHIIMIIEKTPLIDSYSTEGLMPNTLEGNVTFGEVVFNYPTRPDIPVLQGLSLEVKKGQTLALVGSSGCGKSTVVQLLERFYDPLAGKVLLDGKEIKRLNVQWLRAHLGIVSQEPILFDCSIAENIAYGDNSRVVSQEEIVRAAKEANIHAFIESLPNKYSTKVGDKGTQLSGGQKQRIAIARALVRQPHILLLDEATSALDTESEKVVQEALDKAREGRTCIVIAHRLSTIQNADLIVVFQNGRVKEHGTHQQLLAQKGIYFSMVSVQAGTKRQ

Biological target: ATP-dependent translocase ABCB1 (Homo sapiens, UniProt P08183)
Assay: Inhibition of human P-glycoprotein mediated [3H]vinblastine transport in human Caco-2 cells
Format: cell-based

- EC50: 250 nM
SMILES: COc1cccc(CCc2ccccc2OCc2cccc(OC)c2OC)c1
